## Curated experimental data: properties

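The OPERA project collected these measurements from public sources as training and test data for property models. One number stands for a compound and property, with no spread given. Conditions of the individual experiments are not part of the data. The measured form (salt, isomer or mixture) is not always the one drawn. Unmarked limits or estimates from the upstream databases cannot be ruled out.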

Melting points are in °C.
The boiling point refers to atmospheric pressure (760 mmHg), by the definition of the set.
logP is the log10 of the octanol-water partition coefficient; higher is more lipophilic.
Water solubility is log10 of mol/L, nominally at 25 °C; higher is more soluble.
Vapor pressure is log10 of mmHg; the set covers 15 to 30 °C, mostly 20 to 25 °C.
The unbound fraction in human plasma runs from 0 (all bound) to 1 (all free).
Clint is human hepatic intrinsic clearance in µL/min per million cells; 0 means that no clearance was seen.

{"smiles": "CCCCCCCCCCCC(=O)OC[C@H](O)[C@@H](O)[C@H](O)[C@H](O)CO", "name": "D-Glucitol monolaurate", "MP (°C)": "70.9", "water solubility (log10 mol/L)": "-4.224"}
{"smiles": "Cc1cc(C)cc(N)c1", "name": "3,5-Dimethylaniline", "logP": "1.83", "water solubility (log10 mol/L)": "-1.402", "log VP (log10 mmHg)": "-0.011"}
{"smiles": "O=S(=O)(Oc1ccc(Cl)cc1)c1ccccc1", "name": "Fenson", "MP (°C)": "62", "water solubility (log10 mol/L)": "-4.21"}
{"smiles": "Nc1c(S(=O)(=O)[O-])cc(Nc2ccccc2)c2c1C(=O)c1ccccc1C2=O.[Na+]", "name": "Acid Blue 25", "logP": "-0.09", "water solubility (log10 mol/L)": "-2.174"}
{"smiles": "COc1ccc(Cl)cc1P(c1cc(Cl)ccc1OC)c1cc(Cl)ccc1OC", "name": "Tris(5-chloro-2-methoxyphenyl)phosphine", "water solubility (log10 mol/L)": "-8.667", "log VP (log10 mmHg)": "-11.53"}
{"smiles": "CC1(C)OCC(CO)O1", "stereo": "stereo not drawn", "name": "Solketal", "MP (°C)": "-38.5", "logP": "-0.6"}
{"smiles": "Cc1ccc(Nc2ccc(O)c3c2C(=O)c2ccccc2C3=O)c(S(=O)(=O)[O-])c1.[Na+]", "name": "C.I. Acid Violet 43", "logP": "-0.66", "water solubility (log10 mol/L)": "-2.402"}
{"smiles": "O=C(Oc1ccccc1)c1ccc(O)cc1", "name": "Phenylparaben", "fu": "0.045", "hepatic Clint (µL/min/10^6 cells)": "865"}
{"smiles": "CC(C)(C=NCCCCCCN=CC(C)(C)CN1CCOCC1)CN1CCOCC1", "bp (°C)": "293.4", "log VP (log10 mmHg)": "-4.418"}
{"smiles": "CCCCCCOC1CCC(C)(C)O1", "stereo": "stereo not drawn", "name": "Furan, 5-(hexyloxy)tetrahydro-2,2-dimethyl-", "MP (°C)": "-86", "bp (°C)": "224", "logP": "5.6", "water solubility (log10 mol/L)": "-3.496", "log VP (log10 mmHg)": "-1.23"}
{"smiles": "C=CC(=O)OCCCCCCOc1ccc(C(=O)Oc2ccc(C#N)cc2)cc1", "name": "4-cyanophenyl-4-(6-(acryloyloxy)hexyloxy)benzoate", "MP (°C)": "73", "water solubility (log10 mol/L)": "-7.951", "log VP (log10 mmHg)": "-10.44"}
{"smiles": "Nc1nc2ccc(S(=O)(=O)[O-])cc2s1.[Li+]", "name": "Lithium 2-aminobenzothiazole-6-sulphonate", "MP (°C)": "387", "logP": "1"}
{"smiles": "O=c1c2ccccc2c2ccc3sc4ccccc4c4ccc1c2c34", "name": "14H-Anthra[2,1,9-mna]thioxanthen-14-one", "MP (°C)": "314", "logP": "3.6", "water solubility (log10 mol/L)": "-7.983"}
{"smiles": "CC(C)[C@@H](C(=O)O)N1CCCNC1=O", "MP (°C)": "176.5", "logP": "0.17", "log VP (log10 mmHg)": "-6.337"}
{"smiles": "CC1=CC(C)(C)CC(=O)C1", "name": "beta-Isophorone", "MP (°C)": "-40.7", "log VP (log10 mmHg)": "-0.14"}
{"smiles": "CNC(=O)c1cc(C#N)cc(C)c1N", "name": "2-Amino-5-cyano-N,3-dimethylbenzamide", "MP (°C)": "204.5", "bp (°C)": "302", "logP": "1.42", "water solubility (log10 mol/L)": "-3.047", "log VP (log10 mmHg)": "-6.231"}
{"smiles": "Cl.OCCNc1ccc2c(c1)OCO2", "name": "Hydroxyethyl-3,4-methylenedioxyaniline HCl", "MP (°C)": "163.5", "log VP (log10 mmHg)": "-7.262"}
{"smiles": "Nc1ccc(C(=O)OCCCOC(=O)c2ccc(N)cc2)cc1", "name": "1,3-Propanediol, bis(4-aminobenzoate)", "logP": "2.63", "water solubility (log10 mol/L)": "-4.895"}
{"smiles": "CCCCCCCC(=O)CC(=O)c1ccccc1", "name": "1,3-Decanedione, 1-phenyl-", "MP (°C)": "17.06", "water solubility (log10 mol/L)": "-5.804"}
{"smiles": "Clc1nc(N2CCCCC2)c2nc(Cl)nc(N3CCCCC3)c2n1", "name": "2,6-Dichloro-4,8-di(piperidin-1-yl)pyrimido(5,4-d)pyrimidine", "MP (°C)": "253", "logP": "2"}
{"smiles": "O=CC1CCCSC1", "stereo": "stereo not drawn", "name": "TETRAHYDROTHIOPYRAN-3-CARBOXALDEHYDE", "MP (°C)": "-47", "logP": "1.44", "log VP (log10 mmHg)": "-0.958"}
{"smiles": "Cc1cc(C)cc(OCC2CNC(=O)O2)c1", "stereo": "stereo not drawn", "name": "Metaxalone", "logP": "2.3", "water solubility (log10 mol/L)": "-2.238"}
{"smiles": "Cc1cc(Cl)cc2c1C(=O)/C(=C1/Sc3cc(Cl)cc(C)c3C1=O)S2", "name": "D&C Red No. 30", "MP (°C)": "378", "logP": "2.06"}
{"smiles": "N#Cc1cccc(C2=C3C(=O)NC(c4cccc(C#N)c4)=C3C(=O)N2)c1", "name": "C.I. Pigment Orange 71", "water solubility (log10 mol/L)": "-7.429", "log VP (log10 mmHg)": "-12.05"}
{"smiles": "Oc1ccc(CCCCNC[C@H](O)c2ccc(O)c(O)c2)cc1", "name": "Arbutamine", "logP": "2.9", "water solubility (log10 mol/L)": "-3.576"}
{"smiles": "O=C1c2ccccc2C(=O)c2c1ccc1c2[nH]c2ccc3c4ccccc4c(=O)c4ccc1c2c43", "name": "Anthra[2,1,9-mna]naphth[2,3-h]acridine-5,10,15(16H)-trione", "logP": "2.3", "water solubility (log10 mol/L)": "-5.507"}
{"smiles": "CCOC(=O)c1ccc(C)cc1O", "name": "Benzoic acid, 2-hydroxy-4-methyl-, ethyl ester", "logP": "3.6", "water solubility (log10 mol/L)": "-3.423"}
{"smiles": "COc1cc(/N=N/c2ccc(S(=O)(=O)[O-])cc2)c(C)cc1/N=N/c1c(S(=O)(=O)[O-])cc2cc(Nc3ccccc3)ccc2c1O.[Na+].[Na+]", "name": "C.I. Direct Violet 9, disodium salt", "MP (°C)": "299.2", "logP": "-2.165"}
{"smiles": "CCOC(=O)CC1(C)OCC(C)O1", "stereo": "stereo not drawn", "name": "Ethyl 2,4-dimethyl-1,3-dioxolane-2-acetate", "logP": "1.8", "water solubility (log10 mol/L)": "-2.18", "log VP (log10 mmHg)": "-1.227"}
{"smiles": "CCCOC(C(=O)OC1CCN(C)CC1)(c1ccccc1)c1ccccc1", "name": "Propiverine", "water solubility (log10 mol/L)": "-1.866", "fu": "0.1"}
{"smiles": "C=C(C)C(=O)OCC1COC(C)(C)O1", "stereo": "stereo not drawn", "logP": "2", "log VP (log10 mmHg)": "-1.401"}
{"smiles": "CC(Cl)=CCCl", "name": "1,3-Dichloro-2-butene", "MP (°C)": "-78", "logP": "2.84", "log VP (log10 mmHg)": "0.999"}
{"smiles": "CCCCCCCCCCCC(=O)OCCCCCCCC", "name": "Dodecanoic acid, octyl ester", "MP (°C)": "10.1", "water solubility (log10 mol/L)": "-8.826"}
{"smiles": "C=CCOC(=O)[C@@H]1[C@@H](C)CCCC1(C)C", "name": "(1R,6S)-Allyl 2,2,6-trimethylcyclohexanecarboxylate", "bp (°C)": "241.8", "water solubility (log10 mol/L)": "-4.174", "log VP (log10 mmHg)": "-1.084"}
{"smiles": "CCCc1ccc(OC)cc1", "name": "4-Propylanisole", "MP (°C)": "-15", "log VP (log10 mmHg)": "0.875"}

Extract of 4 entries:

{"smiles": "Cc1ccc(Nc2ccc(O)c3c2C(=O)c2ccccc2C3=O)c(S(=O)(=O)[O-])c1.[Na+]", "name": "C.I. Acid Violet 43", "logP": "-0.66", "water solubility (log10 mol/L)": "-2.402"}
{"smiles": "CC(Cl)=CCCl", "name": "1,3-Dichloro-2-butene", "MP (°C)": "-78", "logP": "2.84", "log VP (log10 mmHg)": "0.999"}
{"smiles": "CNC(=O)c1cc(C#N)cc(C)c1N", "name": "2-Amino-5-cyano-N,3-dimethylbenzamide", "MP (°C)": "204.5", "bp (°C)": "302", "logP": "1.42", "water solubility (log10 mol/L)": "-3.047", "log VP (log10 mmHg)": "-6.231"}
{"smiles": "O=S(=O)(Oc1ccc(Cl)cc1)c1ccccc1", "name": "Fenson", "MP (°C)": "62", "water solubility (log10 mol/L)": "-4.21"}

Source: data files of OPERA 2.9 (Mansouri et al.), github.com/kmansouri/OPERA.